Literature values, collected in US10941121B2 (AZIENDA OSPEDALIERA UNIVERSITARIA SENESE, priority 2015, dated 2021).

Chains of the proteins cited; added tags and fusions are not shown.
UniProt O00571, whole entry: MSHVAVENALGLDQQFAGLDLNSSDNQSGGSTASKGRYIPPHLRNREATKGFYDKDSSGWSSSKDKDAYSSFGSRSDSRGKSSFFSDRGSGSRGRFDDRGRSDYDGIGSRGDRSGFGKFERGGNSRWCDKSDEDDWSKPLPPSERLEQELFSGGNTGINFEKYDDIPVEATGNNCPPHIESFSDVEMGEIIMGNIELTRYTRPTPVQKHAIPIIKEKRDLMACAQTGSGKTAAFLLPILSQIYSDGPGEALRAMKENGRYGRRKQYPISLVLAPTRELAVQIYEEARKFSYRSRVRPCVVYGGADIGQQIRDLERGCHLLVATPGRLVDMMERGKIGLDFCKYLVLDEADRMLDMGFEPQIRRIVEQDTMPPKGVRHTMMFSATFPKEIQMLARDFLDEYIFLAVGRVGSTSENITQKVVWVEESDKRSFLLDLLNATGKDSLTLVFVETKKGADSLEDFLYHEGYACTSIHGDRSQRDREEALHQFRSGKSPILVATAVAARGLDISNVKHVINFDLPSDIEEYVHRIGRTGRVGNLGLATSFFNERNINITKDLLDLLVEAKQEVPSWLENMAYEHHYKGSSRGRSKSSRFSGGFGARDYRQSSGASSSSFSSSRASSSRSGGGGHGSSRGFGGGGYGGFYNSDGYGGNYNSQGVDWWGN

Biological target: DDX3 (Homo sapiens, UniProt O00571)
Settings: read-out: Ki on DDX3; literature values; cited from earlier work

Structure (SMILES): O=C1/C(=C/c2c(NCCCO)nc3ccccn3c2=O)SC(=S)N1CCc1ccccc1
- Ki: 200 nM
